ChEMBL document CHEMBL5223132, “Structure-activity relationships of mixed σ1R/σ2R ligands with antiproliferative and anticancer effects” (Bioorg Med Chem, 2022)

Chains of the proteins cited; added tags and fusions are not shown.
UniProt Q5BJF2, whole entry: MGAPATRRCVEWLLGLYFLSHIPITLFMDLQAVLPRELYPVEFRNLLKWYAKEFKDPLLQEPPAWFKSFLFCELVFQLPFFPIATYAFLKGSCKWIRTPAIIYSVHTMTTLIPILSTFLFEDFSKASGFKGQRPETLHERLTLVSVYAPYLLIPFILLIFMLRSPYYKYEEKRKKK
UniProt Q99720, whole entry: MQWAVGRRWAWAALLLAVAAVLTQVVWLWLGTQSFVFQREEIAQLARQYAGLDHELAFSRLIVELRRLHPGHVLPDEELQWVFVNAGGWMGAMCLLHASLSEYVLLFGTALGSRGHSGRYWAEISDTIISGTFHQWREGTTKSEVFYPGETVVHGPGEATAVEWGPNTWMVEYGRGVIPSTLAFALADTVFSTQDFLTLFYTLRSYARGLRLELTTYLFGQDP

Key:
[1] = molecular target: Sigma intracellular receptor 2 (Homo sapiens, UniProt Q5BJF2); test: Displacement of [H3]DTG from sigma 2 receptor (unknown origin) by competition binding assay
[2] = molecular target: Sigma non-opioid intracellular receptor 1 (Homo sapiens, UniProt Q99720); test: Displacement of [H3]DTG from sigma 1 receptor (unknown origin) by competition binding assay

COc1cccc2c1CCCC2CCCN1CCN(C2CCCCC2)CC1 (configuration not stated)
Ki [1]: 0.68 nM

Fc1ccc(-n2cc(CCCCN3CCC4(CC3)OCc3ccccc34)c3ccccc32)cc1 [SIRAMESINE]
Ki [2]: 10.5 nM
